Assay results as given in patent publication US11964962B2, “Substituted pyridazinone compound and use thereof” (SHANDONG FIRST MEDICAL UNIVERSITY & SHANDONG ACADEMY OF …, priority 2020, dated 2024).

Chains of the proteins cited; added tags and fusions are not shown. Residues count along the entry.
UniProt P10828, whole entry: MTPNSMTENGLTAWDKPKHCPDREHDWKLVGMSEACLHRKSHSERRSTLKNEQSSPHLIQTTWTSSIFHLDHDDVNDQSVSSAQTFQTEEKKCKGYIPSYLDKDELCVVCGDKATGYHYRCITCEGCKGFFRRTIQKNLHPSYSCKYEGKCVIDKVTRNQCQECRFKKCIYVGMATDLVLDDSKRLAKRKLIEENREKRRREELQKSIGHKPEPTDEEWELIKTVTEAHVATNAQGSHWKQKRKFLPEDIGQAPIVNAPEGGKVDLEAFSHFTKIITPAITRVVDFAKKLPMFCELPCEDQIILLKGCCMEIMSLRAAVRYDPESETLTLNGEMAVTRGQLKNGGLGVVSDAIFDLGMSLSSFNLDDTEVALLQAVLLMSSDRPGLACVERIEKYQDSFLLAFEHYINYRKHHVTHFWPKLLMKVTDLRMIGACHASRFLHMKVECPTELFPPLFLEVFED
UniProt P10827, 1-410 isoform 2: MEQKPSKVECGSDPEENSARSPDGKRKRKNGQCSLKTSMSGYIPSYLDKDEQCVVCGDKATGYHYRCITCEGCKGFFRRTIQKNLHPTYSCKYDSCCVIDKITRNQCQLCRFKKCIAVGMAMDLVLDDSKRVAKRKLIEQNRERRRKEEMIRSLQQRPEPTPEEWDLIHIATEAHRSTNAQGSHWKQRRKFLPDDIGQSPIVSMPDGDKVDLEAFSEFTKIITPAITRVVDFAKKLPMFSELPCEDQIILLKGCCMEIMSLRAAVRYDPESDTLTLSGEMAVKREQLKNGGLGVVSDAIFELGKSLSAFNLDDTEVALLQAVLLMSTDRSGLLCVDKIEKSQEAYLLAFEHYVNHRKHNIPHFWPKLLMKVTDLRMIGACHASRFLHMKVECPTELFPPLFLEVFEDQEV
UniProt P19793, 225-462 partner limits assumed: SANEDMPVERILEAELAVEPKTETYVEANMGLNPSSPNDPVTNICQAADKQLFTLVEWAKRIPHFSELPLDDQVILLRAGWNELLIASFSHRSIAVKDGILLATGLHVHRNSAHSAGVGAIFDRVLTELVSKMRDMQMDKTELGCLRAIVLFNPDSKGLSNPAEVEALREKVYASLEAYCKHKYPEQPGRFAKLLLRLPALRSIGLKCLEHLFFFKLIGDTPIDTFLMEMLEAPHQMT
UniProt Q15596, 679-703 partner limits assumed: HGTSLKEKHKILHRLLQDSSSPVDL

What was measured:
THRβ = THRβ (Homo sapiens, UniProt P10828); test: THRβ agonist activity, fluorescence ratio 665 nm/615 nm with EE-RxRα and biotin-GRIP; format: biochemical; details: read-out: EC50 of THRβ; incubated overnight at 4° C.
THRα = THRα (Homo sapiens, UniProt P10827); test: THRα agonist activity, fluorescence ratio 665 nm/615 nm with EE-RxRα and biotin-GRIP; format: biochemical; details: read-out: EC50 of THRα; incubated overnight at 4° C.
L929 mouse fibroblasts = test: Cytotoxicity in normal cell line L929 (CCK-8 proliferation assay); format: cell-based; details: read-out: IC50 for proliferation of L929 cell lines; 48 h treatment, CCK-8, absorbance 450 nm

Row | EC50 (THRβ) | EC50 (THRα) | SMILES | IC50 (L929 mouse fibroblasts)
1 | 17.6 µM | 0.003 µM | CC(C)Cc1cc(Oc2cc(Cl)c(-n3nc(C#N)c(=O)[nH]c3=O)cc2Cl)n[nH]c1=O | 
2 | 0.0616 µM | > 60 µM | COc1cc(-n2nc(C#N)c(=O)[nH]c2=O)ccc1Oc1cc(CC(C)C)c(=O)[nH]n1 | > 50 µM
